## Ab-91 heavy chain CDR variants: yeast mating affinities

Binding partner: SARS-CoV-2 spike HR2 peptide, sequence PDVDLGDISGINAS.

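Phage display of a naive human antibody library on the peptide gave the parent. The library (AAYL51) carries one to three amino acid substitutions per variant, with no insertions or deletions. Affinity was read by AlphaSeq, a pooled yeast mating assay with surface-displayed partners. The frequency of each diploid, read from paired DNA barcodes, reflects how well the two displayed proteins bind. Read counts were normalised to the haploid input and turned into Kd by a linear fit to BCL2-family pairs of known affinity, for each replicate. The assay was run in three technical replicates.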

The variants keep the light chain, the linker and the frameworks of Ab-91 (scFv order VL, the linker GGGGSGGGGSGGGGS, VH).
VL: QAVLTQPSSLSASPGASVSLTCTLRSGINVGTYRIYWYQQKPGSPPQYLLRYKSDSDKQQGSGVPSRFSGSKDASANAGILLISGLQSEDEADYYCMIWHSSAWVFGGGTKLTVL
VH: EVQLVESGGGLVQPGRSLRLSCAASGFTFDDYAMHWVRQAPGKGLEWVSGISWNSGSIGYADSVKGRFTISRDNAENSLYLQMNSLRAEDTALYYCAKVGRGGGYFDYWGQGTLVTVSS

Variants are written as CDR1, CDR2 and CDR3 of the heavy chain (limits as in the source). Parent: GFTFDDYAMH, GISWNSGSIGYADSVK, VGRGGGYFDY.
Affinities are written as log10 Kd with Kd in nM; a lower number is a better binder.
Where no diploid with the target was found in that replicate, the entry reads "n.d.": below detection, most likely a poor binder, though not proof of it.
Nonspecific signal, from three strains lacking the peptide, appeared in 21% of pairings of library AAYL51, centred on 4.54 (5% of these signals below 3.26); values are not corrected for it. For each scFv, signals with the empty controls are counted beside the result, with their mean in brackets.

CDR-H1	CDR-H2	CDR-H3	replicates, log10 nM	empty controls
NFTFDDYAMH	GWSWNSGSIGYADSVK	VGRWGGYFDY	3.59 n.d. n.d.	5/9 (4.40)
GFTFDMYAMH	GISWISGSIGYADSVK	VGRMGGYFDY	3.76 n.d. n.d.	0/9
GFTFDGYAMH	GISWNSGSIGYADSVK	VGRGGAYFDY	1.55 1.56 1.32	4/9 (4.38)
GFTFDDYAMH	GISWNSGSIGYADSPR	VMRGGGYFDY	6.02 5.33 3.96	3/9 (4.29)
GFTFDNYAMH	GISWNSTSIGYADSVK	LGRGGGYFDY	1.57 1.44 1.18	1/9 (4.37)
GFTFDDYAMH	GISWASGSIGYTDSVK	VGRGGNYFDY	4.16 n.d. n.d.	4/9 (4.38)
GFTFDDYAMK	GISWNSGSIGYADSVK	VGRGGCYFDY	n.d. 3.89 n.d.	0/9
GFTFDDYAMH	GISYNYGSIGSADSVK	VGRGGGYFDY	n.d. n.d. n.d.	6/9 (4.19)
GFTFDDYAWH	GISWNSGKIGPADSVK	VGRGGGYFDY	n.d. n.d. n.d.	4/9 (4.65)
GETFDDYADH	GISWNSGSIGYADSVK	VGFGGGYFDY	3.48 n.d. n.d.	2/9 (3.42)
GFTFDDYAMH	GISWNAGSIGYADSVK	VGVGGGYFDY	3.25 2.64 n.d.	0/9
GFTFDDYAMH	GISWNSGSIGYADSVK	LGRGGGLFDY	n.d. n.d. n.d.	1/9 (3.24)
GFTFDDYIMH	GINYNSGSIGYADSVK	VGRGGGYFDY	n.d. n.d. n.d.	0/9
GFTFDMYAMV	GISWNSGSIGYADSVA	VGRGGGYFDY	n.d. n.d. n.d.	2/9 (3.72)
GFTFDDYAMH	GISWASGSIGYLDSVI	VGRGGGYFDY	n.d. 5.06 n.d.	1/9 (4.88)
GFTFDDYQMH	GISWNSGSIGYADSVK	MGGGGGYFDY	n.d. n.d. n.d.	0/9
GFTFDDYAMH	GISWNGDSIGIADSVK	VGRGGGYFDY	0.51 0.29 -0.27	3/9 (5.05)
GCTFDDYAMH	GISWNSGSYGYADSVK	VGRGIGYFDY	n.d. n.d. n.d.	3/9 (5.12)
GFTFDDYAMH	AISWNSGSDGYADSVK	VGWGGGYFDY	n.d. n.d. 4.52	2/9 (4.27)
GFTFDTYAMH	TISWNSGSIGYADSVK	VGRGGGDFDY	n.d. n.d. n.d.	0/9
GFTFDDYAMH	GISWNSGSIGYADSVK	VGRGGAFFHY	1.87 1.82 1.45	1/9 (3.31)
GFTFDDYAMH	GISWNSGAHGYSDSVK	VGRGGGYFDY	1.01 1.09 0.55	1/9 (4.91)
GFTFDDYAMH	GISWNSGAIGYADSVK	VFRGGGYFDE	n.d. n.d. n.d.	0/9
GFTFDDYAMH	GISWNSGSIGYAQSVK	VGRGGGYFDF	2.85 4.48 n.d.	2/9 (4.64)
GFTFDDYAMD	GISWNGGSIGYADSVK	VGRGGGYFDY	1.62 1.67 0.84	3/9 (4.65)
GFTFDDYAMH	GISWNSGFIGYADSVC	VGRGGGYFCY	n.d. n.d. n.d.	0/9
GFTFSDYAAH	GISWNSGSIGYADSVK	PGRGGGYFDY	1.88 1.67 1.24	3/9 (4.77)
IFTFFDYAMH	GIEWNSGSIGYADSVK	VGRGGGYFDY	n.d. n.d. n.d.	2/9 (3.57)
GFTFDDYFMH	MISWNSGSMGYADSVK	VGRGGGYFDY	3.58 n.d. n.d.	1/9 (3.15)
FFTFDDYYMH	GISWNSGSIWYADSVK	VGRGGGYFDY	n.d. 3.58 n.d.	0/9
GFTFDDYAMH	GISWNSGSIDWADQVK	VGRGGGYFDY	4.83 5.89 n.d.	7/9 (5.20)
GFTFDFYAMH	GISWNSGSIGYAHIVK	VGRGGGYFDY	n.d. 2.79 n.d.	0/9
GFTFDDYAMH	GISWNSGSIGKADCVK	VGRGGGYFDS	n.d. n.d. n.d.	0/9
RFTFDDYKMH	DISWNSGSIGYADSVK	VGRGGGYFDY	n.d. n.d. n.d.	2/9 (4.64)
GFTFADYAMH	GISWNSGSIGYADYVK	VGRGGGYFVY	n.d. n.d. n.d.	1/9 (4.16)
GFTFDDYAMF	GISWNSGSIGYADGVK	VGRGGGYHDY	n.d. n.d. n.d.	0/9
GFSFDDYAMH	HISWNSGSIGYADSVA	VGRGGGYFDY	3.94 3.95 3.96	1/9 (4.49)

The opening 6 entries, copied out:

| CDR-H1 | CDR-H2 | CDR-H3 | replicates, log10 nM | empty controls |
|---|---|---|---|---|
| NFTFDDYAMH | GWSWNSGSIGYADSVK | VGRWGGYFDY | 3.59 n.d. n.d. | 5/9 (4.40) |
| GFTFDMYAMH | GISWISGSIGYADSVK | VGRMGGYFDY | 3.76 n.d. n.d. | 0/9 |
| GFTFDGYAMH | GISWNSGSIGYADSVK | VGRGGAYFDY | 1.55 1.56 1.32 | 4/9 (4.38) |
| GFTFDDYAMH | GISWNSGSIGYADSPR | VMRGGGYFDY | 6.02 5.33 3.96 | 3/9 (4.29) |
| GFTFDNYAMH | GISWNSTSIGYADSVK | LGRGGGYFDY | 1.57 1.44 1.18 | 1/9 (4.37) |
| GFTFDDYAMH | GISWASGSIGYTDSVK | VGRGGNYFDY | 4.16 n.d. n.d. | 4/9 (4.38) |

For reference, the parent read 1.86 as the reference entry and 0.88 as a member of this library.

Reference: Engelhart et al. 2022, doi:10.1038/s41597-022-01779-4. File: FLAb, binding data.